This passage reports TD50 results from ChEMBL document CHEMBL4725277, “Synthetic and therapeutic perspectives of nitrogen containing heterocycles as anti-convulsants” (Bioorg Med Chem, 2020).

Structures are written as SMILES.

The nature of the data set: Neurotoxicity in ip and po injected mouse. The data set is classed as toxicity, organism-based. The settings on record: in vivo.

What is called TD50 is the 50% point of the dose-response relation for the toxic effect studied. High values mean lower toxicity, low ones greater toxicity. For `CCC1(c2ccccc2)C(=O)NC(=O)NC1=O` [PHENOBARBITAL], the TD50 stood at 65.5 mg/kg.
